Assay results reported in patent US20260151503A1, “TARGETED NANOPARTICLE, TARGETED CELL, PREPARATION METHOD THEREFOR, AND USE THEREOF” (INSTITUTE OF PROCESS ENGINEERING, CHINESE ACADEMY OF SCIENCE, priority 2022, published 2026).

Experiments:
[1] = Transmission electron microscopy of ferritin cluster; type: physicochemical; conditions: FIG. 2
Experimental: The preparation of the targeted cell of the present invention comprises the following steps: • (1) The protein was aggregated and precipitated to form a protein cluster under electrolyte or non-electrolyte conditions; • non-electrolyte conditions: Ferritin was dissolved in PBS buffer (pH 7.2-7.4) to a final concentration of 10 mg/mL. Then, absolute ethanol was added dropwise to the solution at room temperature under magnetic stirring at 1000 rpm until the solution became cloudy visible to the naked eye.
Electrolyte conditions: Ferritin was dissolved in PBS buffer (pH 7.2-7.4) to a final concentration of 10 mg/mL. Then, a saturated ammonium sulfate solution was added dropwise to the solution at room temperature under magnetic stirring at 1000 rpm until the solution became cloudy visible to the naked eye.
(2) The clusters were crosslinked in the presence of a crosslinking agent to obtain a crosslinked targeted nanoparticle. The crosslinking in the step was to directly add a 25% glutaraldehyde solution into the turbid solution in step (1) until the final concentration was 0.25-1%, or add NHS-PEG-NHS to the final concentration of about 1%. The mixture was then allowed to react for 1.5 h at room temperature with stirring at 1000 rpm. […]

[2] = tested on: leukemia cells; test: High-content dynamic fluorescence imaging of FnC capture from the CAR T surface; type: cell-based, human; conditions: co-incubation of FnC-CAR T with leukemia cells; FIG. 13
Experimental: Labeling of cells: CAR T cells were labeled with red fluorescent Celltracker dye, leukemia cells were labeled with CFSE, and the ferritin cluster nano-particle formulation was labeled with Cy5-se dye in this experiment. The wavelengths of the three excitation lights were 561 nm, 488 nm, and 633 nm, respectively.
Specific experimental steps: The fluorescently labeled CAR T cells and fluorescently labeled ferritin cluster nano-particle formulation described above were prepared into FnC-CAR T according to the previously described method.

FnC: full-heavy chain recombinant ferritin aggregated, precipitated and crosslinked (glutaraldehyde or NHS-PEG-NHS) into clusters
particle size [1]: 300-500 nm | capture of FnC from the CAR T surface by leukemia cells [2]: able to take FnC off the CAR T surface | uptake of FnC by CAR T [2]: did not take up
